In ChEMBL document CHEMBL1134384, “Development of new carboxylic acid-based MMP inhibitors derived from functionalized propargylglycines” (J Med Chem, 2001):

Target: Collagenase 3 (Homo sapiens, UniProt P45452)
Assay: Inhibition of human matrix metalloprotease-13 at pH 7.4

O=C(O)C(CC#Cc1ccccc1)NS(=O)(=O)c1ccc(/N=N/c2ccccc2)cc1 (stereo unspecified)
IC50: 498 nM
